Source: US20220274967A1, “BCAT MODULATION” (Icagen, LLC, priority 2019, published 2022)

By UniProt entry, the sequences of proteins in these tests, tags left out. Residues count along the entry.
UniProt O15382, 28-392 limits assumed: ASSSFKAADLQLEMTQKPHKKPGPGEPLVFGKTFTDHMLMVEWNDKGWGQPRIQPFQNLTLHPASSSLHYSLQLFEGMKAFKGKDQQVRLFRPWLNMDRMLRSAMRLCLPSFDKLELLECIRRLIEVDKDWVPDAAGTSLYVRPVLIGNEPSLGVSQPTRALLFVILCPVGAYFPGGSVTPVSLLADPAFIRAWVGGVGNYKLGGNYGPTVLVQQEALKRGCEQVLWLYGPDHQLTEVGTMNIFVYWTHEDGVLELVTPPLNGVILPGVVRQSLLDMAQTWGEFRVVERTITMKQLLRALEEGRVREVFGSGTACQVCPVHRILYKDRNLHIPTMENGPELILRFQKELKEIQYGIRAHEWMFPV
UniProt P54687, whole entry: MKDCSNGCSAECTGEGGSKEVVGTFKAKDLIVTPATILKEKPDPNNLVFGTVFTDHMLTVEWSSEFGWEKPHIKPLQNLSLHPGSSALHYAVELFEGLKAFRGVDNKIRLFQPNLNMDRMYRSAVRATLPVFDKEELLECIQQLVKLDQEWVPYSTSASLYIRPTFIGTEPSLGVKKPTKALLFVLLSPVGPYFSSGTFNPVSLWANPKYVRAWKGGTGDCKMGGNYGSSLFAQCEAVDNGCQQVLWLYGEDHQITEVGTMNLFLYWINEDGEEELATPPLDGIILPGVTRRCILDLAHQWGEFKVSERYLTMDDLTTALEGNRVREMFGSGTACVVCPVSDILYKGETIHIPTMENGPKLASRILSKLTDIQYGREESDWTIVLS

Key:
BCAT2 = BCAT2 (Homo sapiens, UniProt O15382); experiment: BCAT2 enzyme inhibition (human); format: biochemical; details: read-out: BCAT2 ENZYME INHIBITION HUMAN IC50
BCAT1 = BCAT1 (Homo sapiens, UniProt P54687); experiment: BCAT1 enzyme inhibition (human), Glutamate Glo luminescence; details: read-out: BCAT1 ENZYME INHIBITION HUMAN IC50
GM00371 cells = experiment: Viability assay (Cell titer glo) in the 3-HIB assay; details: read-out: 3HIB INHIBITION IC50 (μM) MEAN GM00371 cells Viablility Assay, 24 hours

Compound: CNC(=O)c1ccc2c(c1)nc(-c1ccccn1)n2C1CCCN(C(=O)Cc2ccc(Cl)s2)C1 (stereo not drawn)
- IC50 (BCAT2): > 1000 nM
- IC50 (BCAT1): > 1000 nM

Compound: COc1ccc(Nc2nc(N3CCCC3)c3ccccc3n2)cc1Cl
- IC50 (BCAT2): > 1000 nM

Compound: CNC(=O)c1ccc2c(c1)nc(-c1ccccn1)n2C1CCCN(C(=O)Nc2ccccc2)C1 (stereo not drawn)
- IC50 (BCAT2): > 1000 nM
- IC50 (BCAT1): > 1000 nM

Compound: CNC(=O)c1ccc2c(c1)nc(-c1ccccn1)n2C1CCCN(C(=O)Nc2ccccc2Cl)C1 (stereo not drawn)
- IC50 (BCAT2): > 1000 nM
- IC50 (BCAT1): > 1000 nM

Compound: N#Cc1ccccc1-c1nc2cc(Cl)ncc2n1C1CCCC(NC(=O)c2ccc(Br)s2)C1 (stereo not drawn)
- IC50 (BCAT2): < 100 nM
- IC50 (GM00371 cells): 0.5 to 1 µM
